Here are results for one molecule from patent US9260483B2, “Triazacyclononane-based phosphinate ligand and its use for molecular imaging” (TECHNISCHE UNIVERSITÄT MÜNCHEN, priority 2011, dated 2016).

The subject of the assay is mice bearing M21/M21L human melanoma xenografts (integrin expression). Put plainly: PET imaging. The note with it: mice with tumor xenografts.

As for `N=C(N)NCCC[C@@H]1NC(=O)[C@H](CCCCNC(=O)CCOCCOCCOCCOCCNC(=O)CCP(=O)(O)CN2CCN(CP(=O)(O)CCC(=O)NCCOCCOCCOCCOCCC(=O)NCCCC[C@@H]3NC(=O)[C@H](Cc4ccccc4)NC(=O)[C@H](CC(=O)O)NC(=O)CNC(=O)[C@H](CCCNC(=N)N)NC3=O)CCN(CP(=O)(O)CCC(=O)NCCOCCOCCOCCOCCC(=O)NCCCC[C@@H]3NC(=O)[C@@H](Cc4ccccc4)NC(=O)[C@@H](CC(=O)O)NC(=O)CNC(=O)[C@@H](CCCNC(=N)N)NC3=O)CC2)NC(=O)[C@H](Cc2ccccc2)NC(=O)[C@H](CC(=O)O)NC(=O)CNC1=O` [Compound R3PEG4P9], the “suitability of the tracer for imaging of integrin expression (biodistribution and PET imaging)” value is “suitability of the tracer for imaging of integrin expression”.
